Among the data in US20090325960A1, “METHOD FOR TREATING INFLAMMATORY DISEASES USING RHO KINASE INHIBITOR COMPOUNDS” (priority 2008, published 2009) are Ki values, retold here.

Chains of the proteins cited; added tags and fusions are not shown. Residues count along the entry.
UniProt O75116, 11-552 limits assumed: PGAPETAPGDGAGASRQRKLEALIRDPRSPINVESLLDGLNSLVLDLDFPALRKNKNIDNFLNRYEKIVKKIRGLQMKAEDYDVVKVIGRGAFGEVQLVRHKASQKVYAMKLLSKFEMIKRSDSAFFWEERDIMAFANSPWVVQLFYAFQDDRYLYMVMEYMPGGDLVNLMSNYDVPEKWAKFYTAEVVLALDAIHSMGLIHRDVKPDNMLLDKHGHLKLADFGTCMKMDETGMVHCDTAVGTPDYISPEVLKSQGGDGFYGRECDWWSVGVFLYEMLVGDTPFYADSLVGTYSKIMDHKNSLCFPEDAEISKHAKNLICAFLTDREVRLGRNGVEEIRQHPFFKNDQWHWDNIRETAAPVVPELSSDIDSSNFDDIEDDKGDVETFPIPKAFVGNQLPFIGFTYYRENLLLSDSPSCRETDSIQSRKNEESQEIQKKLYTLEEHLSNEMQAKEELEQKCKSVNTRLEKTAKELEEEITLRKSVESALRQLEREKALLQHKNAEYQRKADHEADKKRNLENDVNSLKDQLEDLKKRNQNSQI

For this experiment, the target named is T1, ROCK2 (Homo sapiens, UniProt O75116).
T1 construct: purchased Upstate/Chemicon 14-451
Briefly: Rho kinase inhibition assay (IMAP fluorescence polarization), ROCK2. It counts as biochemical. The following applies: average.

SMILES strings stand for the structures. Read-outs that look alike come from different tables or passages of the source.

Usually Ki stands for a measure of affinity in units of concentration, obtained from inhibition or displacement. Turning to `Cc1ccc(CN2CC[C@@H](Nc3cccc4cnccc34)C2)cc1OCCO` [Compound 2.064, (R)-2-(5-((3-(isoquinolin-5-ylamino)pyrrolidin-1-yl)methyl)-2-methylphenoxy)ethanol], the Ki reads like this: (IMAP fluorescence polarization, 10 μM ATP, read-out: ROCK2 Ki, Avg) 2.2 nM; (read-out: ROCK2 Ki) 2.2 nM.
